Drawing on PubChem BioAssay AID434978 (Johns Hopkins Ion Channel Center, 2010), this text covers inhibition for one compound.

Only a part is listed here, and it is no random draw. Activity calls are given as the source filed them.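 The calls were made as follows: active = primary screen active whose calcium signal fell more than 3 SD beyond the full-serotonin control mean in both duplicate plates; inactive = the rest.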

The nature of this assay: serotonin-gated TRPC4 signal block – cell-based, second counter screen, HEK293 TRPC4/5HT1a, Fluo-4, counter-screen for TRPC4 inhibitor project, confirmation (AID 434978). Particulars: Fluo-4 calcium flux, at 10 µM, hits give high values, serotonin added to trigger calcium flux. A general note: A counterscreen serves to expose hits that act by an unwanted route or on another target.
Take `CN(C)C1(CNC(=O)c2ccc(Cl)c(S(N)(=O)=O)c2)CCCCC1`: the inhibition (as a rule, how much of the control response was suppressed) is inactive: 0%.
